Source: US20090196918A1, “Liposomal formulations of hydrophobic lactone drugs in the presence of metal ions” (University of Kentucky Research Foundation, priority 2008, published 2009)

Assay: Maximum tolerated dose of DB-67 by the intravenous route
Details: for 5 days

## CC[C@@]1(O)C(=O)OCc2c1cc1n(c2=O)Cc2c-1nc1ccc(O)cc1c2[Si](C)(C)C(C)(C)C [DB-67, 7-t-butyldimethylsilyl-10-hydroxycamptothecin]
  maximum tolerated dose (MTD): 7.5 mg/kg/day
